Screens: PubChem BioAssay, National Center for Advancing Translational Sciences (NCATS)
This is a sample that favours compounds with a hit; in the whole collection about 13% have one here.
G9a block – G9a (human) methyltransferase inhibition; AID 504332; 8.8% of 350,000 active; Potency, µM (series often up to 102 µM), actives largely listed as inhibitors; G9a H3K9 monomethylation, AlphaScreen, 2 h; further: nearly all actives have a fitted effect of over 75% in size
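G9a (20 nM) preincubated 15 min RT with compounds, then 500 nM biotinylated H3K9 peptide and 20 uM SAM added; 2 h RT reaction. Monomethyl-H3K9 product detected by AlphaScreen with anti-H3K9me1 antibody, streptavidin donor and anti-rabbit IgG acceptor beads.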
JMJD2E inh – blocks human JMJD2E demethylase activity; B2RXH2; JMJD2E catalytic domain, FDH-coupled NADH fluorescence (FDH is formaldehyde dehydrogenase); Potency, µM (titrated, usually from 57.1 µM), actives largely listed as inhibitors; 1.6% of 230,000 active; AID 2147; active means well fitted inhibition curve with a large enough effect, not every such curve was filed as active; inconclusive means small, poorly fitted or top-dose-only effect, or another doubt; inactive means no such curve, though single readings can be large or run the other way; further: nearly all actives have a fitted effect of over 50% in size
miR-21 reporter – miR-21 reporter, rising signal. 340,000 tested, under 10 active. Potency, µM (highest dose often 38.3 µM). HeLa miR-21 FLuc reporter, luciferase, 48 h. AID 2288; active = well fitted rising curve with a large enough effect; inconclusive = small, poorly fitted or top-dose-only effect; inactive = no such curve, though single readings can be large or run the other way;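 further: miR-21 action dims this reporter so a rising signal means less miR-21 action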
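Compounds were titrated across several concentrations (up to approximately 40 uM) and incubated 48 hours with HeLa miR-21-FLuc reporter cells (miR-21 target sequence downstream of FLuc, endogenous miR-21). Readout was firefly luciferase luminescence after lytic detection reagent.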
Sfp PPTase inh – blocks B. subtilis Sfp PPTase activity; Biochemical Sfp PPTase activity, qHTS; Potency, µM, usual class: inhibitors; 3.5% of 310,000 active;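 further: the enzyme is Sfp with the accession as filed and its product quenches rhodamine fluorescence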
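Reaction rates are the 30-min fluorescence difference (ex 525, em 598 nm) in wells containing 15 nM Sfp, 5 uM rhodamine-CoA and 12.5 uM BHQ-2-YbbR at pH 7.6 with 10 mM MgCl2.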
Lamin A splicing – modulators of lamin A splicing; HeLa LMNA splicing GFP/RFP minigene ratio, 48 h; Potency, µM (doses to about 46.1 µM), most hits filed as inhibitors; 0.01% of 200,000 active; AID 1487; active means well fitted inhibition curve with a large enough effect in the signal ratio, with a control signal flat, not every such curve was filed as active; inconclusive means small, poorly fitted or top-dose-only effect, or effect the other way, or a change in a side signal; the % refers to the signal ratio
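S3 HeLa stable clones carrying a lamin A-EGFP splicing minigene plus DsRed2 were seeded at 600 cells/well in Opti-MEM with 2% FBS, pin-dosed and incubated 48 h at 37°C. Acumen cytometry (488 nm) gave the GFP/RFP total-intensity ratio.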
ALDH1A1 inh – ALDH1A1 (human) enzyme inhibition; Potency, µM (titrated, usually from 75.3 µM), most hits filed as inhibitors; 7.3% of 220,000 active; P00352; Purified ALDH1A1, NADH fluorescence, propionaldehyde substrate; active means well fitted inhibition curve with a large enough effect, not every such curve was filed as active; inconclusive means small, poorly fitted or top-dose-only effect, or another doubt; inactive means no such curve, though single readings can be large or run the other way
Of the large screens only hits and unclear results are named; the others gave an inactive call. Unless noted, the call rests on the fitted dose curve; in most records, active means well fitted curve in the direction sought with a large enough effect; inconclusive means small, poorly fitted or top-dose-only effect, or another doubt; inactive means no such curve, though single readings can be large; an effect the other way counts as inactive or inconclusive.

CC(C)OC(=O)c1cccc(C(=O)O)n1	G9a block 2.5µM, Sfp PPTase inh 50µM
O=C(/C(=N\Nc1ccc(Br)cc1)Sc1nnnn1-c1ccccc1)c1ccccc1	Lamin A splicing inconclusive, ALDH1A1 inh 1.6µM
CCOC(=O)/C(=N/Nc1ccccc1)Sc1nnnn1-c1ccc(C)cc1	G9a block inconclusive, ALDH1A1 inh 7.1µM
Cc1cc(N(C)Cc2ccccc2)nc2cc(O)ccc12	none (no result: JMJD2E inh, Lamin A splicing, ALDH1A1 inh)
COc1ccc(N2CCc3c(C)nc4c(OC)cccc4c32)cc1	JMJD2E inh inconclusive, miR-21 reporter inconclusive, Lamin A splicing inconclusive, ALDH1A1 inh 28µM
COc1ccc(N2CCc3c(C)nc4c(OC)cc(OC)cc4c32)cc1	Lamin A splicing inconclusive
Nc1c(C(=O)N2CCCCCC2)oc2ccccc12	G9a block inconclusive (no result: JMJD2E inh, Lamin A splicing, ALDH1A1 inh)
O=C(NCCN1CCOCC1)C1CCN(Cc2ccccc2O)CC1	G9a block 22µM, JMJD2E inh inconclusive
COc1ccc(CCNC(=O)CC2Oc3ccc(Cl)cc3NC2=O)cc1OC (configuration not stated)	G9a block 79µM, ALDH1A1 inh inconclusive
CCC(C)NC(=O)CC1Oc2ccc(Cl)cc2NC1=O (configuration not stated)	G9a block 45µM
CCc1ccccc1N1C(=O)N(CC(=O)c2ccc(OC)cc2)c2ccccc2S1(=O)=O	none (no result: JMJD2E inh, Sfp PPTase inh, ALDH1A1 inh)
Cc1ccc(NC(=O)CSC2=C(C#N)C(c3ccc4c(c3)OCO4)C3=C(CCCC3=O)N2)c(C)c1 (configuration not stated)	G9a block 50µM, JMJD2E inh inconclusive, Lamin A splicing inconclusive, ALDH1A1 inh 14µM
COC(=O)CSC1=C(C#N)C(c2ccc(C)cc2)C2=C(CCCC2=O)N1 (configuration not stated)	G9a block inconclusive, JMJD2E inh inconclusive, Sfp PPTase inh 56µM, ALDH1A1 inh inconclusive
CCc1ccccc1NC(=O)CSC1=C(C#N)C(c2ccc(O)c(OC)c2)C2=C(CCCC2=O)N1 (configuration not stated)	G9a block 8.9µM, Sfp PPTase inh inconclusive, ALDH1A1 inh inconclusive
CCSC1=C(C#N)C(c2ccc3c(c2)OCO3)C2=C(CCCC2=O)N1 (configuration not stated)	ALDH1A1 inh inconclusive
COC(=O)CSC1=C(C#N)C(c2ccc3c(c2)OCO3)C2=C(CCCC2=O)N1 (configuration not stated)	G9a block inconclusive, Sfp PPTase inh inconclusive
Cc1nc([N+](=O)[O-])c(C(=O)OCc2cccc(Br)c2)n1C	G9a block 50µM (no result: Lamin A splicing)
Cc1nc([N+](=O)[O-])c(C(=O)OCc2ccccc2)n1C	ALDH1A1 inh inconclusive (no result: Lamin A splicing)
O=C(O)Cc1ccc(C(=O)c2cccs2)s1	G9a block inconclusive, ALDH1A1 inh 10µM
CN(C)c1ncc2ncc(=O)n(C3CC3)c2n1	none (no result: JMJD2E inh, miR-21 reporter)
O=C(CCC(=O)OCC(=O)c1ccc(-c2ccccc2)cc1)Nc1cccc2cccnc12	none (no result: G9a block)
O=C(CCC(=O)OCC(=O)c1ccc(Cl)cc1Cl)Nc1cccc2cccnc12	ALDH1A1 inh 28µM (no result: G9a block)
Cc1ccc(C)c(OCCSc2nc3ccccc3n2CC(=O)N2CCOCC2)c1	G9a block inconclusive (no result: JMJD2E inh, Sfp PPTase inh, Lamin A splicing, ALDH1A1 inh)
Cc1ccc(OCCSc2nc3ccccc3n2CC(=O)N2CCCCC2)c(C)c1	G9a block 14µM (no result: JMJD2E inh, Sfp PPTase inh, Lamin A splicing, ALDH1A1 inh)
CC1CC(C)CN(S(=O)(=O)c2ccc3oc(=O)ccc3c2)C1 (configuration not stated)	none (no result: JMJD2E inh, Lamin A splicing, ALDH1A1 inh)
CCCCN(Cc1ccco1)C(=O)C1CCCN(c2ncnc3c2nc2n3CCCCC2)C1 (configuration not stated)	G9a block 79µM, miR-21 reporter inconclusive (no result: JMJD2E inh, Lamin A splicing, ALDH1A1 inh)
O=C(CCn1nnc2ccccc21)Nc1nnc(Cc2ccccc2)s1	G9a block inconclusive, Sfp PPTase inh 50µM, ALDH1A1 inh inconclusive
CC(C)CCn1nnnc1C(c1ccc(N(C)C)cc1)N1CCN(C(=O)c2ccco2)CC1 (configuration not stated)	G9a block 50µM, ALDH1A1 inh inconclusive
CC(C)(C)n1nnnc1C(c1ccncc1)N1CCN(c2ccc(O)cc2)CC1 (configuration not stated)	G9a block inconclusive, JMJD2E inh inconclusive, Sfp PPTase inh 16µM, ALDH1A1 inh inconclusive
